Test results taken from article PMC9726900.

Experiments:
[1] = tested on: CHD4-IDR2-del+ (Homo sapiens); experiment: MST; settings: 3 mM Mg2+ in dilution buffer; CHD4: 50 mM HEPES pH 7.5, NaCl up to 50 mM and MgCl2 up to 3 mM (from dilution buffer), 100 ng/uL BSA, 0.5% glycerol, 25 nM Cy5 substrate; C1bC2a: 20 mM HEPES …
[2] = tested on: CHD4(1-1540) (Homo sapiens); experiment: MST; settings: CHD4: 50 mM HEPES pH 7.5, NaCl up to 50 mM and MgCl2 up to 3 mM (from dilution buffer), 100 ng/uL BSA, 0.5% glycerol, 25 nM Cy5 substrate; C1bC2a: 20 mM HEPES …
[3] = target: 46w60 nucleosome (recombinant human histone octamer on Widom 601 DNA with 46-bp and 60-bp flanks), Cy5-labelled (human) (UniProt P0C0S8); experiment: MST; settings: enzyme
[4] = target: 46w60 nucleosome (recombinant human histone octamer on Widom 601 DNA with 46-bp and 60-bp flanks), Cy5-labelled, P0C0S8;P62807;P68431;P62805; experiment: microscale thermophoresis (MST); settings: parent: 45

Substance 46w60 nucleosome has a Kd [1] of 250 nM and a Kd [2] of 250 nM.

Substance “CHD4-IDR2-del+ (from UniProt Q14839 1-226; Q14839 363-1912)” has a Kd [3] of 250 nM.

“WT CHD4 (human chromodomain helicase DNA-binding protein 4, full length) (from UniProt Q14839) IDR2-del+ (residues 227-362 replaced by an alpha-synuclein sequence of the same length; single substitutions not printed)” gave a Kd [4] of 250 nM.
